Tested on: Gammarus pulex
Test: Biotransformation products in G. pulex after exposure to propranolol, carbamazepine or diazepam (LC-MS/MS)

CC(C)NCC(O)COc1ccc(OS(=O)(=O)O)c2ccccc12 (centres unmarked)
mean concentration of biotransformation product at 48 h (end of the uptake phase) (after exposure to the precursor compound (propranolol 10 μg L^−1, diazepam 1 μg L^−1)): 75 ± 17 ng g^−1 dw
mean concentration of biotransformation product at 96 h (propranolol exposure, end of elimination phase): 84 ± 4 ng g^−1 dw
